Experimental data taken from ChEMBL document CHEMBL1129362 (J Med Chem, 1996).

By UniProt entry, the sequences of proteins in these tests, tags left out.
UniProt P32238, whole entry: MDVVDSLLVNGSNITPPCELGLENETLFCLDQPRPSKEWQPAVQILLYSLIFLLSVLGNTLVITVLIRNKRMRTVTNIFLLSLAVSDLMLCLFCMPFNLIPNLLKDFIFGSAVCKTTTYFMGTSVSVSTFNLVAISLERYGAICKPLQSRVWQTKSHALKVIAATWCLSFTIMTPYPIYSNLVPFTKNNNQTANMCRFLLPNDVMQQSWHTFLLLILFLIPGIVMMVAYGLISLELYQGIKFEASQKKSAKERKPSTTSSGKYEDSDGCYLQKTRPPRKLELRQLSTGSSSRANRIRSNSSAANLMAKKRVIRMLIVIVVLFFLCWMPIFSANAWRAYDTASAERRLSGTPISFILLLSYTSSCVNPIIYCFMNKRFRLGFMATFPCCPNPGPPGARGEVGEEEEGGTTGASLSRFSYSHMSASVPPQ

Target: Cholecystokinin receptor type A (Homo sapiens, UniProt P32238)
Assay: Binding affinity against human Cholecystokinin type A receptor by displacement of [125I]CCK-8

## COc1ccc(N(C(=O)CN2C(=O)C(C)(Cc3c[nH]c4ccccc34)C(=O)N(c3ccccc3)c3ccccc32)C(C)C)cc1 (stereo unspecified)
  IC50: 8.32 nM
